Results reported in US11471537B2, “Oligomer extended insulin-Fc conjugates” (Novo Nordisk A/S, priority 2017, dated 2022).

Experiment: PK studies: intravenous and subcutaneous administration to SD rats, insulin-Fc concentrations by immuno-assay
Format: in vivo
Conditions: for PK rat sc [T½ (h)] Mean Value: subcutaneous
Procedure: Insulin-Fc conjugates were tested in vivo by intravenous and subcutaneous administration to SD rats. Blood samples were collected and the insulin-Fc concentrations were measured by immuno-assay.

Row | Substance | PK rat iv [T½ (h)] Mean Value [h] | PK rat sc [T½ (h)] Mean Value [h]
1 | (A14A, A21G, A22(GQAP)18, A94G, A95Q, A96A, A97K^, A98P, B29R, desB30 human insulin)/(227A, 234A, 235K, 297E, 315Q, 384Q, des447 hIgG4-Fc(228-447))4-[bis[2-[(2-acetyl)amino]ethyl]amino]-4-oxo-butanoyl Conjugate [Example 5.25] | 47.7 | 44.5
2 | (A14E, A21G, A22(GQEP)19, A98K^, A99P, B25H, B29R, desB30 human insulin)/(227A, 234A, 235K hIgG4-Fc(228-447))4-[bis[2-[(2-acetyl)amino]ethyl]amino]-4-oxo-butanoyl Conjugate [Example 5.1] | 32.6 | 39.1
3 | A14E, A21G, A22(GQAPGQAPGQEP)6-GQAP, A98K^, A99P, B3Q, B25H, B29R, desB30 human insulin/(227A, 234A, 235K hIgG4-Fc(228-447))4-[bis[2-[(2-acetyl)amino]ethyl]amino]-4-oxo-butanoyl Conjugate [Example 5.5] | 44.7 | 35.7
4 | A14E, A21G, A22(GQAPGQAPGQEP)6-GQAP, A98K^, A99P, B3Q, B25H, B29R, desB30 human insulin/(227A, 234A, 235K, 297E, 315Q, 384Q, des447 hIgG4-Fc(228-447))4-[bis[2-[(2-acetyl)amino]ethyl]carbamoylamino]butanoyl Conjugate [Example 5.24] | 50.6 | 51.9
5 | A14E, A21G, A22(GQAPGQAPGQEP)6-GQAP, A98K^, A99P, B3Q, B25H, B29R, desB30 human insulin/(227A, 234A, 235K, 297E, 315Q, 3840, des447 hIgG4-Fc(228-447))4-[bis[2-[(2-acetyl)amino]ethyl]amino]-4-oxo-butanoyl Conjugate [Example 5.13] | 53.3 | 43.4
6 | A14E, A21G, A22(GQAPGQEP)6, A70K^, A71P, B25H, B29R, desB30 human insulin/(227A, 234A, 235K hIgG4-Fc(228-447))4-[bis[2-[(2-acetyl)amino]ethyl]amino]-4-oxo-butanoyl Conjugate [Example 5.9] | 36.3 | 31.7
7 | A14E, A21G, A22(GQEP)6, A46K^, A47P, B25H, B29R, desB30 human insulin/(227A, 234A, 235K hIgG4-Fc(228-447))4-[bis[2-[(2-acetyl)amino]ethyl]amino]-4-oxo-butanoyl Conjugate [Example 5.7] | 36.5 | 32.3
8 | A14E, A21G, A22(GQEP)12, A70K^, A71P, B25H, B29R, desB30 human insulin/(227A, 234A, 235K hIgG4-Fc(228-447))4-[bis[2-[(2-acetyl)amino]ethyl]amino]-4-oxo-butanoyl Conjugate [Example 5.8] | 36.3 | 36.6
9 | A14E, A21G, A22(GQEP)19, A98K^, A99P, B3Q, B25H, B29R, desB30 human insulin/(227A, 234A, 235K hIgG4-Fc(228-447))4-[bis[2-[(2-acetyl)amino]ethyl]amino]-4-oxo-butanoyl Conjugate [Example 5.6] | 31.1 | 30.1
10 | A14E, A21G, A22(GQEP)19, A98K^, A99P, B3Q, B25H, B29R, desB30 human insulin/(227A, 234A, 235K, 297E, 315Q, 384Q, des447 hIgG4-Fc(228-447))4-[bis[2-[(2-acetyl)amino]ethyl]amino]-4-oxo-butanoyl Conjugate [Example 5.2] | 42.8 | 44.0
11 | A14E, A21Q, A22(G)18, A40K^, B25H, B29R, desB30 human insulin/(227A, 234A, 235K hIgG4-Fc(228-447))4-[bis[2-[(2-acetyl)amino]ethyl]amino]-4-oxo-butanoyl Conjugate [Example 5.21] | 43.2 | 38.8
